Source: patent US20240408094A1, “INHIBITION OF USP7 INDUCES P53-INDEPENDENT TUMOR GROWTH SUPPRESSION IN TRIPLE-NEGATIVE BREAST CANCERS BY DESTABILIZING FOXM1” (The Trustees of Columbia University in the City of New York, priority 2023, published 2024)

Protein sequences, listed by entry. Tags and fused reporters are not part of them.
UniProt Q93009, whole entry: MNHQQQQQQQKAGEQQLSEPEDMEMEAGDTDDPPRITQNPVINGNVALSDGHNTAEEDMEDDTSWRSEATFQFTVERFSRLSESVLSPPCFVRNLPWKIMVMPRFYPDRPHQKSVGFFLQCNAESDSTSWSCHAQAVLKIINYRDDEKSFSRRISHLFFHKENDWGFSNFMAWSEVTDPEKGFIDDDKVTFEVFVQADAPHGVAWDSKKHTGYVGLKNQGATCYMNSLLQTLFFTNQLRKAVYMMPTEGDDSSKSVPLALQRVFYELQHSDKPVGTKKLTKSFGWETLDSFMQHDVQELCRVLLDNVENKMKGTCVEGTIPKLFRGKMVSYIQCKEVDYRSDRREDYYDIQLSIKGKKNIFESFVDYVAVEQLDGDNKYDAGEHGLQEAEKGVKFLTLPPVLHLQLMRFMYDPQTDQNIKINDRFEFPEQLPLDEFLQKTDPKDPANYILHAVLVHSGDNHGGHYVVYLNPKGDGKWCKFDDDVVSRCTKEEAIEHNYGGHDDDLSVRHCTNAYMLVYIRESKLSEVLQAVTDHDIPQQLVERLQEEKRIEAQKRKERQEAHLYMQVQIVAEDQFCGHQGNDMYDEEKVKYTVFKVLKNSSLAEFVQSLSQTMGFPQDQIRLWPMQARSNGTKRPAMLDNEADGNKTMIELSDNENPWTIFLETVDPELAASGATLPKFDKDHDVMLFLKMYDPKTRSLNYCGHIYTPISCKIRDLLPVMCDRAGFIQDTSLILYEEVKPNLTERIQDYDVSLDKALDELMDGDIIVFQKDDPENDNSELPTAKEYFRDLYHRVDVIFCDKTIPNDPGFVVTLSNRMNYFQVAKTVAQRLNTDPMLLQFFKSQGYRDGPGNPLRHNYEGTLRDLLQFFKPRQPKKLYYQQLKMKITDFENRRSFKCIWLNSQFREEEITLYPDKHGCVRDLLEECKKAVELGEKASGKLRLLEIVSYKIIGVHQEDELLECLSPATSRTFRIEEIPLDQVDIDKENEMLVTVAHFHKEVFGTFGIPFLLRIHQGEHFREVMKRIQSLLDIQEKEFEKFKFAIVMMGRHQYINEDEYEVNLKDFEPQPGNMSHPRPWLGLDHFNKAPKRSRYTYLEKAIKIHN

What was measured:
MDM2 = MDM2 protein levels by western blot in CAL33 cells; format: cell-based, human; details: dose- and time-dependent
Description: (§1) To specifically degrade USP7, a set of 66 PROTAC compounds were designed and synthesized that contain an USP7 specific binding moiety XL177A and an E3 ubiquitin ligase (CRBN or VHL) binding moiety connected by different linkers. All putative USP7 PROTACs were used to treat CAL33 cells that express high levels of USP7 protein, and then the USP7 protein levels were determined by western blot (FIGS. 10A and 10B). Through initial screening, PU7-1 was identified as a potential USP7 degrader (FIG. 3A and FIG. 10). […] The effect of PU7-1 was also tested in several human cancer cells harboring wild-type p53. […] In addition, to exclude the possibility that PU7-1 affects the USP7 protein levels by regulating its transcription, a quantitative real-time PCR was performed in CAL33 treated with PU7-1 for 72 h. […]
(§2) Cells were lysed in FLAG lysis buffer (50 mM Tris-HCl (pH 7.3), 137 mM NaCl, 10 mM NaF, 0.5 mM EDTA, 1% Triton X-100, 0.2% Sarkosyl, 10% glycerol) freshly supplemented with protease inhibitor cocktail. Protein concentration was determined by the Bio-Rad protein assay. […] Membranes were blocked with 5% (w/v) nonfat milk in Tris-buffered saline with Tween-20 (TBST), incubated with primary antibodies, then secondary HRP-conjugated antibodies (Jackson ImmunoResearch, 1:10000 dilution) and detected on autoradiographic films after incubating with ECL (Thermo Scientific, #32106). […]

USP7 [1] = molecular target: T1, USP7 (Homo sapiens, UniProt Q93009); test: USP7 protein half-life (cycloheximide chase) in CAL33 cells; details: CAL33, 10 μM 48 h then cycloheximide; without treatment over 24 h
Description: USP7 protein levels were detected by immunoblots. […] USP7 protein levels were measured by immunoblots. […] USP7 protein levels were detected by immunoblots, then quantified by ImageJ after normalized to internal control β-actin. Half maximal degradation concentration (DC50) was calculated by Graphpad Prism.
To specifically degrade USP7, a set of 66 PROTAC compounds were designed and synthesized that contain an USP7 specific binding moiety XL177A and an E3 ubiquitin ligase (CRBN or VHL) binding moiety connected by different linkers. All putative USP7 PROTACs were used to treat CAL33 cells that express high levels of USP7 protein, and then the USP7 protein levels were determined by western blot (FIGS. 10A and 10B). Through initial screening, PU7-1 was identified as a potential USP7 degrader (FIG. 3A and FIG. 10). […] The effect of PU7-1 was also tested in several human cancer cells harboring wild-type p53. […] In addition, to exclude the possibility that PU7-1 affects the USP7 protein levels by regulating its transcription, a quantitative real-time PCR was performed in CAL33 treated with PU7-1 for 72 h. […] In addition, the half-life of USP7 protein was examined in CAL33 cells in the presence or absence of PU7-1 treatment. […] CAL33 were also treated with the different dosage of PU7-1 ranging from 0.0001 to 10 µM for 24 h. […]

FOXM1 = FOXM1 protein levels by immunoblot in CAL33 cells; format: cell-based, human; details: dose- and time-dependent
Description: FIGS. 4F and 4G show CAL33 cells treated with or without 10 μM of PU7-1 for 96 h. Total RNA was extracted and subjected to RNAseq analysis. Differentially expressed genes were further analyzed. Heatmap in FIG. 4G represents the downregulation of known FOXM1 target genes.
Cells were lysed in FLAG lysis buffer (50 mM Tris-HCl (pH 7.3), 137 mM NaCl, 10 mM NaF, 0.5 mM EDTA, 1% Triton X-100, 0.2% Sarkosyl, 10% glycerol) freshly supplemented with protease inhibitor cocktail. Protein concentration was determined by the Bio-Rad protein assay. Whole cell extracts were then resolved by Novex Tris-Glycine gel (Thermo Scientific) and transferred to a Nitrocellulose membrane (Millipore). Membranes were blocked with 5% (w/v) nonfat milk in Tris-buffered saline with Tween-20 (TBST), incubated with primary antibodies, then secondary HRP-conjugated antibodies (Jackson ImmunoResearch, 1:10000 dilution) and detected on autoradiographic films after incubating with ECL (Thermo Scientific, #32106). Primary antibodies used in this study include anti-USP7 (Cell Signaling, #4833), anti-CRBN (Cell Signaling, #71810); anti-P53 (SantaCruz Biotechnology, sc-126), anti-PUMA (Santa Cruz Biotechnology Cat #sc-28226); anti-p21 (Santa Cruz Biotechnology Cat #sc-53870); anti-FOXM1 (Cell Signaling, #5436); anti-Actin (Sigma-Aldrich Cat #A5441); anti-vinculin (Sigma-Aldrich Cat #V9131).

USP7 [2] = molecular target: T1, USP7; test: USP7 protein degradation by western blot in CAL33 cells; details: dose- and time-dependent
Description: as §1, §2

MDA-MB-468 FOXM1 cells = test: BrdU incorporation in MDA-MB-468 FOXM1 inducible cells; format: cell-based, human; details: 10 μM, 72 h
Description: FIGS. 6C and 6D show representative images of BrdU staining (FIG. 6C) and quantification of BrdU positive (BrdU+) cells (FIG. 6D) in MDA-MB468 FOXM1 inducible cells that were induced with 1 μg/ml Doxycycline overnight followed by the treatment of 10 μM of PU7-1 for 72 h. **p<0.01. FIGS. 6E and 6F show representative images of MDA-MB-468 FOXM1 tumors (FIG. 6E) and quantification of tumor weight (FIG. 6F) in nude mice xenograft model. **p<0.01.
To investigate if PU7-1-mediated effects in TNBC depend on FOXM1, it was first attempted to establish a FOXM1 crispr knockout cell line. Unfortunately, it was not possible to generate the FOXM1 knockout cell line, likely because FOXM1 is an essential gene for cell survival. […] Alternatively, an inducible FOXM1 overexpression cell line was generated in MDA-MB-468 cells (MDA-MB-468 FOXM1 cells). Doxycycline induces high levels of FOXM1 expression in MDA-MB-468 FOXM1 overexpression cells (FIG. 6A). The effects of PU7-1 on cell proliferation were compared in control and doxycycline-treated MDA-MB-468 FOXM1 cells using BrdU incorporation assay. […] Next, the role of FOXM1 in PU7-1-induced tumor suppression was tested. MDA-MB-468 FOXM1 overexpression cells were subcutaneously inoculated into 6-8-week female nude mice fed with doxycycline diet at the dosage of 625 mg/kg to induce exogenous FOXM1 expression. […]

O=C1CCC(N2Cc3c(CCCCCN4CCN(CCC(=O)Nc5ccc6c(=O)n(CC7(O)CCN(C(=O)C(CCCNC(=O)c8ccc9c(Cl)c%10c(nc9c8)CCCC%10)Cc8ccccc8)CC7)cnc6c5)CC4)cccc3C2=O)C(=O)N1 (stereo not drawn)
MDM2 protein levels (MDM2): decreased significantly | USP7 half-life upon treatment (USP7 [1]): 15 h | FOXM1 protein levels (FOXM1): significantly decreased | USP7 protein levels (USP7 [2]): dramatically reduced | reduction of BrdU positive cells (MDA-MB-468 FOXM1 cells; FOXM1 overexpression induced by 1 μg/ml doxycycline): no reduction | BrdU positive cells after treatment (MDA-MB-468 FOXM1 cells; control cells (no doxycycline), untreated 32%): 15%
